Data taken from publication PMC12469672, “Effects on Oral Squamous Carcinoma Cell Lines and Their Mechanisms of Pyrazole N-Aryl Sulfonate: A Novel Class of Selective Cyclooxygenase-2 Inhibitors” (International Journal of Molecular Sciences, 2025).

What was measured:
CAL-27 cells = assay: CCK-8 proliferation assay, CAL-27; format: cell-based
Description: (§1) The OSCC cell lines CAL-27 (STCC12901P, Servicebio, Wuhan, China) and SAS (CC0706, Cellcook, Guangzhou, China) were cultured in Dulbecco Modified Eagle Medium F12 (DMEM/F12) (G4610-500ML, Servicebio, Wuhan, China) supplemented with 10% fetal bovine serum (FBS) (AB-FBS-DIA1050, ABW, Shanghai, China) and 100 U/mL penicillin-streptomycin-gentamicin solution (G4014-100ML, Servicebio, Wuhan, China). VERO cells were cultured in DMEM (G4524-500ML, Servicebio, Wuhan, China) supplemented with 10% FBS (AB-FBS-DIA1050, ABW, China) and 100 U/mL penicillin–streptomycin–gentamicin solution (G4014-100ML, Servicebio, Wuhan, China). […] were maintained at 37 °C in a humidified 5% CO2 incubator. For experiments, 1 × 10^6 cells were seeded per T-25 culture flask.
(§2) CAL-27, SAS, and VERO cells were seeded in 96-well plates at a density of 5000 cells per well. At specified time intervals, 10 μL of Cell Counting Kit-8 (CCK-8) reagent (K1018, Apexbio, Boston, MA, USA) was added to each well and incubated for 2 h. Absorbance at 450 nm was measured using a microplate reader (Infinite M200 Pro, Tecan Group, Männedorf, Switzerland).

SAS cells = assay: CCK-8 proliferation assay, SAS; format: cell-based
Description: as §1, §2

Compound: Cc1ccc(-c2cc(C(F)(F)F)nn2-c2ccc(S(N)(=O)=O)cc2)cc1 [CXB, celecoxib, reference compound]
- Selectivity Index CAL-27 (CAL-27 cells): 4.27
- Selectivity Index SAS (SAS cells): 4.22
